In PubChem BioAssay AID588664 (The Scripps Research Institute Molecular Screening Center, 2011):
The entries are a selection whose mix differs from that of the whole data set. The source made the active and inactive calls. Rule as the data show it: active = inhibition above about 5% (passing the limit was not always enough); inactive = the rest.

Protein sequences, listed by entry. Tags and fused reporters are not part of them.
UniProt P00519, whole entry, looked up: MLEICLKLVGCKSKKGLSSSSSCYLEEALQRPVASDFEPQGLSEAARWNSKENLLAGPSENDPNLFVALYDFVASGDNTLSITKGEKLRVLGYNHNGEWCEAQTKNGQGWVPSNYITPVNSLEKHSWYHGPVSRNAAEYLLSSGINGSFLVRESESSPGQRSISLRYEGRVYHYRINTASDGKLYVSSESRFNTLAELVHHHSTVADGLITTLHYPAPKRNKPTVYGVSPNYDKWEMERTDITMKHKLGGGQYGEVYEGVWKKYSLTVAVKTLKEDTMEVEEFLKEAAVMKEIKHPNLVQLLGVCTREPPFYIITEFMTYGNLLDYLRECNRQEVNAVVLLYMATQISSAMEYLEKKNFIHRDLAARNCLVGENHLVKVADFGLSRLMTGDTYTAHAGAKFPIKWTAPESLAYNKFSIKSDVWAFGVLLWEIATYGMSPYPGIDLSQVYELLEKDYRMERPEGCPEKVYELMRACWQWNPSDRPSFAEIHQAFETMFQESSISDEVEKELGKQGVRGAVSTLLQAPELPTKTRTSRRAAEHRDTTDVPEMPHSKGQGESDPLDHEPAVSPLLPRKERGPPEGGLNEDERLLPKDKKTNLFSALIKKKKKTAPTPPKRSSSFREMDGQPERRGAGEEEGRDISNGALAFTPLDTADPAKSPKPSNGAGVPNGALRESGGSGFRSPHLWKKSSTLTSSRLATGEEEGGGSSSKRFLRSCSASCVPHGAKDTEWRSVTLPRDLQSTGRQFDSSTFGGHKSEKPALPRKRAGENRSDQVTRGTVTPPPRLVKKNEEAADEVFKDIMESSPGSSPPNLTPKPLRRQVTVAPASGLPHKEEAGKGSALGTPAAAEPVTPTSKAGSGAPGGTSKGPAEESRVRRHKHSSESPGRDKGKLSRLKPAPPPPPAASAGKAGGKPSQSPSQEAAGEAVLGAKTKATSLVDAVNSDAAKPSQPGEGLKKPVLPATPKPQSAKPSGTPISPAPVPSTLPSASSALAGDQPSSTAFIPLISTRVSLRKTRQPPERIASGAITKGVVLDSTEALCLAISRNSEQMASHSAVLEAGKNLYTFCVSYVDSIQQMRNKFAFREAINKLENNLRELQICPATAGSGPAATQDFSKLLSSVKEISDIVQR
UniProt Q13671, whole entry, looked up: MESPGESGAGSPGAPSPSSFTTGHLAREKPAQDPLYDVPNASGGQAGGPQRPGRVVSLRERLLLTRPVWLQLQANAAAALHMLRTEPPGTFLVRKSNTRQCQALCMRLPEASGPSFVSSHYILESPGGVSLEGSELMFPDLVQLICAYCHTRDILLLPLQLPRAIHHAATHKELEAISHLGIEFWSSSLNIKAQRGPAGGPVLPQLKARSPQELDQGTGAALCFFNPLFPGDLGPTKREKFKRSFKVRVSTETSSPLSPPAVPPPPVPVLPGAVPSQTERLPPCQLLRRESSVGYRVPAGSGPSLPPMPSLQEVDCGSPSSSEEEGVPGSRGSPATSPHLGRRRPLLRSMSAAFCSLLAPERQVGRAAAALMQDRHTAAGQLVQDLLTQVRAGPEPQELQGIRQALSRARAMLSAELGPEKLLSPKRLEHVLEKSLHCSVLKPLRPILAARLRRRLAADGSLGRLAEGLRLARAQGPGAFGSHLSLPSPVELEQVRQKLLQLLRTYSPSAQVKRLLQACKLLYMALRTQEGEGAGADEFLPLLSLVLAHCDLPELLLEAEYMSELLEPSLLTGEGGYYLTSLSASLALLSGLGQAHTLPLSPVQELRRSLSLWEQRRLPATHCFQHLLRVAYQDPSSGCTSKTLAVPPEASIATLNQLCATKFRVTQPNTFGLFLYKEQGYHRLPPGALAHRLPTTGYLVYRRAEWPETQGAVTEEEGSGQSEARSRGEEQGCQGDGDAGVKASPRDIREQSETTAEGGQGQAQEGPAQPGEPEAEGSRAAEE

molecular target: Tyrosine-protein kinase ABL1 (Homo sapiens) + Ras and Rab interactor 1 (Homo sapiens) (UniProt P00519+Q13671); assay: inhibitors of Rin1-Abl protein binding, primary screen, biochemical, TR-FRET (AID 588664); details: at 7.35 µM, hits give high values

SMILES	inhibition
Cc1ccccc1NC1(C#N)CCN(Cc2ccccc2)CC1	inactive: 0.28%
COc1ccc(C(c2nnnn2C2CCCCC2)N2CCC(n3c(=O)[nH]c4ccccc43)CC2)cc1 (stereo not drawn)	inactive: 10.1%
CCN1CCC(Nc2cccc(F)c2)CC1	inactive: 0.36%
CC(C)(C)n1nnnc1C(c1ccnc2ccccc12)N1CCC(n2c(=O)[nH]c3ccccc32)CC1 (stereo not drawn)	inactive: 1.68%
O=C(NCC1(N2CCCCC2)CCCCC1)c1ccco1	inactive: 0.38%
CN(C)c1ccc(C(=O)NCC2(N3CCCCC3)CCCCC2)cc1	inactive: 2.22%
Cn1c(=O)[nH]cc(N(CCCl)CCCl)c1=O	inactive: 1.55%
COc1cc(OC)cc(C(=O)NCC2(N3CCCCC3)CCCCC2)c1	inactive: 2.12%
O=c1[nH]c2ccccc2n1C1CCN(C(c2ccnc3ccccc23)c2nnnn2C2CCCCC2)CC1 (stereo not drawn)	inactive: 7.4%
CC(=O)N(c1ccccc1)C1CCNCC1	inactive: 0.59%
CCC(c1nnnn1C1CCCCC1)N1CCC(n2c(=O)[nH]c3ccccc32)CC1 (stereo not drawn)	active: 52.3%
Cc1ccc(NC2(C#N)CCN(Cc3ccccc3)CC2)cc1	inactive: 1.11%
Cc1ccc(C(=O)NCC2(N3CCCCC3)CCCCC2)o1	inactive: 2.15%
Fc1ccccc1NC1CCN(Cc2ccccc2)CC1	inactive: 4.45%
CCC(CO)(C(=O)OC1CN2CCC1CC2)c1ccccc1 (stereo not drawn)	inactive: 3.41%
COc1cccc(C(=O)N(c2cc(C)cc(C)c2)C2CCN(C(=O)OC(C)(C)C)CC2)c1	inactive: 2.59%
COc1cc(OC)cc(C(=O)NCC2(N3CCOCC3)CCCCC2)c1	inactive: 0.45%
COc1cccc(C(c2nnnn2C2CCCC2)N2CCC(n3c(=O)[nH]c4ccccc43)CC2)c1OC (stereo not drawn)	inactive: 7.59%
CN1CCC(Nc2ccc(Cl)cc2)CC1	inactive: 1.19%
CCOc1ncccc1C(=O)NCC1(N2CCOCC2)CCCCC1	inactive: -0.98%
CN1CCC(Nc2ccc(F)c(Cl)c2)CC1	inactive: -0.39%
O=c1[nH]c2ccccc2n1C1CCN(C(c2cc3ccccc3o2)c2nnnn2C2CCCC2)CC1 (stereo not drawn)	inactive: 8.4%
CCCOc1ccc(C(=O)NCC2(N(C)C)CCCCC2)cc1	inactive: 0.93%
CC(C)(C)OC(=O)N1CCC(Nc2ccccc2)CC1	inactive: 0.66%
O=C(O)C1(Nc2ccccc2)CCN(Cc2ccccc2)CC1	inactive: 4.33%
N/C(=N\O)c1c(N)no[n+]1[O-]	inactive: 0.49%
CCOC(=O)N1CCC(Nc2ccc(C)cc2)CC1	inactive: -0.64%
COc1cccc(C(c2nnnn2C(C)(C)C)N2CCC(n3c(=O)[nH]c4ccccc43)CC2)c1OC (stereo not drawn)	inactive: 10.8%
